From US20070123592A1, “Terephthalamide peptidomimetic compounds and methods” (YALE UNIVERSITY, priority 2004, published 2007)

Amino acid sequences for entries named in this document (tags omitted).
UniProt Q07817, whole entry: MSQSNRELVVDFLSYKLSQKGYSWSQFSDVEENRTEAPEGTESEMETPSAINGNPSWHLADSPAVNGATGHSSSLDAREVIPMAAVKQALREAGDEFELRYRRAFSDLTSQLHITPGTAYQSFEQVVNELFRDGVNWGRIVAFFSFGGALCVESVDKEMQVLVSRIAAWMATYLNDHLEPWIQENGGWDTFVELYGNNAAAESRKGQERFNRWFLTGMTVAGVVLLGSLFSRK

Biological target: Bcl-xL/Bak complex (Homo sapiens, UniProt Q07817)
Assay: Fluorescence polarization competition assay (displacement of fluorescein-labeled Bak peptide from Bcl-xL)
Format: binding
Details: for K1 ± S.D.: 15 nM Fl-Bak, 184 nM Bcl-xL, 10 mM PBS pH 7.4, 25° C., mean of three independent experiments; for affinity / activity in disrupting the Bcl-xL/Bak interaction (in words): summary of Table 1

K1 ± S.D.	affinity / activity in disrupting the Bcl-xL/Bak interaction (in words)	SMILES
No affinity	–	CC(C)C[C@H](NC(=O)c1ccc(C(=O)N[C@@H](CC(C)C)C(=O)O)c(Oc2ccccc2)c1)C(=O)O
–	low micro-molar Ki values	COC(=O)[C@H](CC(C)C)NC(=O)c1ccc(C(=O)N(C)C)cc1OC(C)C
Not soluble	–	COC(=O)[C@H](CC(C)C)NC(=O)c1ccc(C(=O)N(C(C)C)C(C)C)cc1Oc1ccccc1
No affinity	weak binding	COC(=O)CNC(=O)c1ccc(C(=O)N(C)C)cc1
